Source: paper PMC7677715 (Redox Biology, 2020)

Target: T1, γ-TTP (α-tocopherol transfer protein A156L) (Homo sapiens, UniProt P49638, A156L)
T1 sequence (P49638 1-278 A156L): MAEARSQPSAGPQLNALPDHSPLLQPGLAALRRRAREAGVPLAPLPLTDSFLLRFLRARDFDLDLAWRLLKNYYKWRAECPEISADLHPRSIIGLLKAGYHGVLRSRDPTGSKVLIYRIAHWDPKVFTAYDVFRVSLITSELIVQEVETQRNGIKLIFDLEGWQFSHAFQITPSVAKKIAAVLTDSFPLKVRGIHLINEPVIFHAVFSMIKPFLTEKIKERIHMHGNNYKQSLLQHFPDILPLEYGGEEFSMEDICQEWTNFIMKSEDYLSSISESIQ
Experiment: FRET ligand transfer to/from liposomes
Format: binding

SMILES: Cc1c(C)c2c(c(C)c1O)CC[C@@](C)(CCC[C@H](C)CCC[C@H](C)CCCC(C)C)O2 [α-tocopherol]
- Kp: 3.08
